From PubChem BioAssay AID1497 (Sanford-Burnham Center for Chemical Genomics, 2009)
The list shows a part of the results, in another mix than the full data. The source made the active and inactive calls.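 The calls were made as follows: active = primary inhibition of 50% or more at 10 µM, then 40% or more on retest; inactive = the rest.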

The chains behind the UniProt entries cited, without tags or fusion partners.
UniProt P05107, whole entry, looked up: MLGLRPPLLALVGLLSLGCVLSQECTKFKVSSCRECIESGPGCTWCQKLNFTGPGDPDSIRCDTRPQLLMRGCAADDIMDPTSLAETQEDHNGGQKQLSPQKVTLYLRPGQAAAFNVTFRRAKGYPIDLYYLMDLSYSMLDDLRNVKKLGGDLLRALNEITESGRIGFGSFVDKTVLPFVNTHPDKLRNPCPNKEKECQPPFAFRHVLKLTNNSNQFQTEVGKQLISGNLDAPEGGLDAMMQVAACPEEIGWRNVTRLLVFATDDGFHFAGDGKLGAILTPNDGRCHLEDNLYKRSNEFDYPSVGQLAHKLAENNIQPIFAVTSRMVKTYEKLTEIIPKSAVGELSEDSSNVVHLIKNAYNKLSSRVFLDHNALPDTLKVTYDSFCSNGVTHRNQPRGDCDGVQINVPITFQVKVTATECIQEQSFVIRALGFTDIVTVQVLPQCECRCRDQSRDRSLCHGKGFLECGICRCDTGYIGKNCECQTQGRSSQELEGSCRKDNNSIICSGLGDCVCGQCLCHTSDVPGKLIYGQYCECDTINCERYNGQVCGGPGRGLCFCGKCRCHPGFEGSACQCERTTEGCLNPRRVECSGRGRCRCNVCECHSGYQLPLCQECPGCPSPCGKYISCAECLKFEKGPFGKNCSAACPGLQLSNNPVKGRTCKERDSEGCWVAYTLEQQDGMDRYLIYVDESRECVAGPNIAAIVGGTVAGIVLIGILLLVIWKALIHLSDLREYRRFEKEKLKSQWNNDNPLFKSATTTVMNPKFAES

target: Integrin beta-2 (Homo sapiens) + Integrin alpha-M (Homo sapiens) (UniProt P05107+P11215); assay: antagonists of integrin CD11b/CD18-fibrinogen binding – K562 cells, luminescence, primary screen (AID 1497); conditions: K562 CD11b/CD18 adhesion to fibrinogen, ATPlite luminescence; at 10 µM; active compounds read high; Mn2+ added to activate the integrin

Structure (SMILES)	inhibition
O=[N+]([O-])c1ccc2c(c1)nnn2O	inactive: 7.3%
CCOP1(=S)c2c(C)nn(CCC#N)c2N=C(c2ccc(F)cc2)N1C (stereo not given)	inactive: -7.7%
CCOP1(=S)c2c(C)nn(CCC#N)c2N=C(c2ccccc2F)N1C (stereo not given)	inactive: -16.8%
Cc1ccc(NCCc2c([N+](=O)[O-])cc([N+](=O)[O-])cc2[N+](=O)[O-])cc1	inactive: -4.3%
Cc1cccc(OCC(=O)OC2CN3CCC2CC3)c1 (stereo not given)	inactive: -2.4%
O=P1(Nc2ccccn2)COc2ccccc2OC1	inactive: 5.7%
Clc1n[nH]nc1-c1nn[nH][15n]1	inactive: -2.9%
O=P1(Nc2ncccn2)COc2ccccc2OC1	inactive: 28.4%
Cc1ccc(OCC(=O)OC2CN3CCC2CC3)cc1 (stereo not given)	inactive: -8.7%
O=P1(Nc2ccc(Br)cn2)COc2ccccc2OC1	inactive: 11.7%
Cc1nn(-c2ccccc2)c2c1P(=O)(N1CCOCC1)N(C)C(c1ccccc1)=N2 (stereo not given)	inactive: -42.6%
Cc1cc(SC(NC(=O)c2ccccc2)C(Cl)(Cl)Cl)nc(C(C)C)n1 (stereo not given)	inactive: 12.3%
COP1(=S)c2c(C)nn(CCC#N)c2N=C(c2ccc(F)cc2)N1C (stereo not given)	inactive: -9.2%
O=C(COc1ccccc1)OC1CN2CCC1CC2 (stereo not given)	inactive: -6.2%
O=C(OC1CN2CCC1CC2)C12CC3CC(CC(C3)C1)C2 (stereo not given)	inactive: 10%
Cc1c2c(nc3ccccc13)SC(C(Cl)Cl)C2 (stereo not given)	inactive: 2.8%
CCN(CC)C(=S)SC(NC=O)C(Cl)(Cl)Cl (stereo not given)	inactive: -6.6%
Cc1ccc2nc3c(c(C)c2c1)CC(C(Cl)Cl)S3 (stereo not given)	inactive: 2.5%
CCN(N=Nc1nonc1N)c1nonc1N	inactive: -0.3%
Cc1cc(SC(NC(=O)c2ccc(F)cc2)C(Cl)(Cl)Cl)ncn1 (stereo not given)	inactive: -2.9%
CCOP(=O)(Nc1ccccc1)OCC	inactive: -7.4%
Oc1ccccc1CNc1ccccn1	inactive: -40.4%
Cc1c2non([O-])c-2c(C)[n+](=O)[n+]1[O-]	inactive: -1.5%
O=[N+]([O-])c1cccc2n[nH]nc12	inactive: 17.8%
CCc1nc2c(n1)c1c(non1O)c1c2no[n+]1[O-]	inactive: 15.2%
O=C(OC1CN2CCC1CC2)c1cccc(Cl)c1 (stereo not given)	inactive: -26.2%
O=P(Nc1nccs1)(c1ccccc1)c1ccccc1	inactive: 31.8%
CC(C)C(=O)NC(Sc1ccccc1)C(Cl)(Cl)Cl (stereo not given)	inactive: -2.9%
c1nnnn1CCn1cnnn1	inactive: -2.5%
O=P1(Nc2nc3ccc(Cl)cc3s2)COc2ccccc2O1 (stereo not given)	inactive: 9.4%
